Experimental data from patent publication US20260035385A1, “BENZO NITROGEN-CONTAINING HETEROAROMATIC RING DERIVATIVE AND USE THEREOF IN MEDICINE” (Xizang Haisco Pharmaceutical Co., Ltd., priority 2021, published 2026).

Assay: Caco2 permeability test
Type: in vitro ADME
Conditions: human, pH 7.4, Caco-2 monolayer
Method: The experiment used a monolayer of Caco-2 cells incubated in triplicate in a 96-well Transwell plate. […] Acetonitrile containing internal standard was then added to precipitate the protein. […] The integrity of the cell monolayer after 2 h of incubation was assessed by leakage of Lucifer Yellow.

Row | Structure (SMILES) | efflux ratio at 2 h, 2 μM
1 | COc1cc(C)c2[nH]ccc2c1CN1CC[C@@H](C2CC2)C[C@H]1c1ccc(C(=O)O)cc1 [Trifluoroacetate of compound 5 (diastereomer 1), 4-((2S)-4-cyclopropyl-1-((5-methoxy-7-methyl-1H-indol-4-yl)methyl)piperidin-2-yl)benzoic acid] | 11
2 | [2H]C([2H])([2H])Oc1cc(C)c2[nH]ccc2c1CN1CC[C@H](C2CC2)C[C@H]1c1ccc(C(=O)O)cc1 [Trifluoroacetate of compound 7 (diastereomer 1), 4-((2S)-4-cyclopropyl-1-((5-(methoxy-d3)-7-methyl-1H-indol-4-yl)methyl)piperidin-2-yl)benzoic acid] | 11
